Reference: PubChem BioAssay AID1477 (National Center for Advancing Translational Sciences (NCATS), 2009)
Only a part is listed here, and it is no random draw. Records with an inconclusive call do not appear. The source made the active and inactive calls. Calls come from the whole dose curve; as a rule, active = well fitted curve in the direction sought with a large enough effect; inconclusive = small, poorly fitted or top-dose-only effect, or effect the other way, or another doubt; inactive = no such curve, though single readings can be large or run the other way.
Note: % of control where 0% means no effect.

Amino acid sequences for entries named in this document (tags omitted).
UniProt Q01196, whole entry partner: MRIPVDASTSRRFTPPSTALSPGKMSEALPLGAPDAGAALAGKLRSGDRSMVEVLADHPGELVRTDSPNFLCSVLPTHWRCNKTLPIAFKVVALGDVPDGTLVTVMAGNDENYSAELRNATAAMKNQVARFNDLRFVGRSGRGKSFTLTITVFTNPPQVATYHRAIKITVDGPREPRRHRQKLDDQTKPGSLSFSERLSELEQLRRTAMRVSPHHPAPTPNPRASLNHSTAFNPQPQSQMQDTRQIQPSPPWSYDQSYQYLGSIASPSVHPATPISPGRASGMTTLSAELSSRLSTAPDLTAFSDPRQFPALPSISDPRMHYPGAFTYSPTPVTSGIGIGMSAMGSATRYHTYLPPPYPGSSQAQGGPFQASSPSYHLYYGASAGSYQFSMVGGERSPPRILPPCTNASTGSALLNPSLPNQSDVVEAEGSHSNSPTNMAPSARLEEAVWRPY
UniProt Q13951, whole entry: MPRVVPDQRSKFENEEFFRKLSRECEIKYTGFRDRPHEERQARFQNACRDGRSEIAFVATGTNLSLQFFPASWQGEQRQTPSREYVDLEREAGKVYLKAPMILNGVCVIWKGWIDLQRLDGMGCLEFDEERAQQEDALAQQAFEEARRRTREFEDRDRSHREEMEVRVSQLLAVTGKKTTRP

The compounds below were run against Runt-related transcription factor 1 (Homo sapiens) + Core-binding factor subunit beta (Homo sapiens) (UniProt Q01196+Q13951) (assay: qHTS Assay for Compounds Blocking the Interaction Between CBF-beta and RUNX1 for the Treatment of Acute Myeloid Leukemia). Settings: AlphaScreen CBFb-His/RUNX1-biotin binding, biochemical; at 59.8 µM (top of the series) unless noted.
In the case of `O=C(OCCN1CCN(CCOCc2ccccc2)CC1)C(O)(c1ccccc1)c1ccccc1`, the activity, negative = inhibition is reported as inactive: 13.7%. `CC(C)c1ccc(OP(C)(=O)Nc2ccc(SC(F)(F)F)cc2)cc1` (centres undefined) was tested, and the activity, negative = inhibition was inactive: 5.54%. `CP(=O)(Nc1ccccc1F)Oc1ccccc1` (centres undefined) was tested, and the activity, negative = inhibition was inactive: -4.37%. `CCCCCOc1ccc(NP(C)(=O)Oc2ccc(Cl)cc2Cl)cc1` (centres undefined) was tested, and the activity, negative = inhibition was inactive: 7.19%. In the case of `CP(=O)(Nc1ccccc1)Oc1ccc(F)cc1` (centres undefined), the activity, negative = inhibition is reported as inactive: 7.05%. For `CCN(CC)CCCOC(=O)C(O)(c1ccccc1)C1CCCCC1` (centres undefined), the activity, negative = inhibition was inactive: 8.59%. In the case of `COc1ccc(OP(C)(=O)Nc2ccc(SC(F)(F)F)cc2)cc1` (centres undefined), the activity, negative = inhibition is reported as inactive: 13.1%. In the case of `Cc1cccc([N+](=O)[O-])c1[N+](=O)[O-]`, the activity, negative = inhibition is reported as inactive: 13.1% [at 21.7 µM]. In the case of `CCC(C)(OO)OOC(C)(CC)OO` (centres undefined), the activity, negative = inhibition is reported as inactive: 5.46% [at 21.7 µM]. In the case of `Cc1cc(-c2cccc3ccccc23)c(C)cn1.O=[N+]([O-])c1cc([N+](=O)[O-])c(O)c([N+](=O)[O-])c1`, the activity, negative = inhibition is reported as inactive: 0.32%. For `Cc1c([N+](=O)[O-])cccc1[N+](=O)[O-]`, the activity, negative = inhibition was inactive: -7.05% [at 21.7 µM]. For `Cc1ccc([N+](=O)[O-])c([N+](=O)[O-])c1`, the activity, negative = inhibition was inactive: 13.7% [at 21.7 µM]. With `O=[N+]([O-])c1ccc(OP2(=O)COCCO2)cc1` (centres undefined) the activity, negative = inhibition was inactive: 5.66%. In the case of `COc1ccc(NP(C)(=O)Oc2ccccc2OC)cc1` (centres undefined), the activity, negative = inhibition is reported as inactive: 1.03%. `CN(C)CCOC(=O)C(O)(c1ccccc1)C1CCCCC1` (centres undefined) was tested, and the activity, negative = inhibition was inactive: 5.73%. For `COc1ccc(OP(C)(=O)Nc2cccc(Br)c2)cc1` (centres undefined), the activity, negative = inhibition was inactive: -1.78%. In the case of `Cc1ccccc1NP(C)(=O)Nc1ccccc1C`, the activity, negative = inhibition is reported as inactive: 2.16%. With `CP(=O)(Nc1ccc2c(c1)OCCO2)Oc1ccccc1` (centres undefined) the activity, negative = inhibition was inactive: -1.82%. With `CCOP(=O)(CC)OCC` the activity, negative = inhibition was inactive: 11% [at 21.7 µM]. In the case of `CCOP(C)(=S)SCC(=O)NC(C)(CC)C(=O)O` (centres undefined), the activity, negative = inhibition is reported as inactive: 4.03%. With `CP(=O)(Nc1ccc(SC(F)(F)F)cc1)Oc1ccc(F)cc1` (centres undefined) the activity, negative = inhibition was inactive: 10.8%. In the case of `CN(C)C(=O)c1c([N+](=O)[O-])cc([N+](=O)[O-])cc1[N+](=O)[O-]`, the activity, negative = inhibition is reported as inactive: -0.047%. With `CP(=O)(Nc1ccc(Cl)cc1)Oc1ccc(F)cc1` (centres undefined) the activity, negative = inhibition was inactive: 3.6%. For `COc1ccccc1OP(C)(=O)Nc1ccccc1Br` (centres undefined), the activity, negative = inhibition was inactive: 1.56%. In the case of `CC(C)(C)c1ccc(OP(C)(=O)O)cc1`, the activity, negative = inhibition is reported as inactive: -4.69%. With `CCc1ccc(OP(C)(=O)Nc2cccnc2)cc1` (centres undefined) the activity, negative = inhibition was inactive: -2.16%. For `CP(=O)(Oc1ccccc1)N1CCOC1=O` (centres undefined), the activity, negative = inhibition was inactive: 0.175%. `O=C(OCCCN1CCCC1)C(O)(c1ccccc1)C1CCCCC1` (centres undefined) was tested, and the activity, negative = inhibition was inactive: 14%. For `OCCSCCO`, the activity, negative = inhibition was inactive: 13.1%. With `COc1ccccc1OP(C)(=O)Nc1c(C)n(C)n(-c2ccccc2)c1=O` (centres undefined) the activity, negative = inhibition was inactive: 2.12%. In the case of `COc1ccc(OP(C)(=O)Nc2ccc(Br)cc2)cc1` (centres undefined), the activity, negative = inhibition is reported as inactive: 6.97%. With `CCN(CC)CC(O)COC(=O)C(O)(c1ccccc1)C1CCCCC1` (centres undefined) the activity, negative = inhibition was inactive: 3.46%. In the case of `C/C1=C2N=C(/C=C3N=C(/C(C)=C4\[N-][C@@](C)([C@H]5N=C1[C@@](C)(CCC(=O)NC[C@H](C)OP(=O)([O-])O[C@@H]1[C@H](O)[C@H](n6cnc7cc(C)c(C)cc76)O[C@@H]1CO)[C@@H]5CC(N)=O)[C@](C)(CC(N)=O)[C@H]4CCC(N)=O)[C@@](C)(CC(N)=O)[C@@H]\3CCC(N)=O)C(C)(C)[C@@H]/2CCC(N)=O.[C-]#N.[Co+3]`, the activity, negative = inhibition is reported as inactive: -15.7% [at 21.7 µM]. In the case of `CP(=O)(OC12CC3CC(CC(C3)C1)C2)OC12CC3CC(CC(C3)C1)C2`, the activity, negative = inhibition is reported as inactive: 2.45%. `CCOC(=O)c1ccc(NP(C)(=O)Oc2ccc(Cl)cc2)cc1` (centres undefined) was tested, and the activity, negative = inhibition was inactive: 8.04%. For `CP(=O)(Nc1ccc(Cl)cc1Cl)Oc1ccccc1` (centres undefined), the activity, negative = inhibition was inactive: -19.6%. For `CP(=O)(OCCOc1ccccc1)OCCOc1ccccc1`, the activity, negative = inhibition was inactive: 3.47%. `Cc1nc2ccc3ccccc3c2o1.O=[N+]([O-])c1cc([N+](=O)[O-])c(O)c([N+](=O)[O-])c1` was tested, and the activity, negative = inhibition was inactive: -1.7%. For `COc1ccc(OP(C)(=O)Nc2ccccc2Br)cc1` (centres undefined), the activity, negative = inhibition was inactive: -0.7%. With `COc1ccccc1OP(C)(=O)Nc1ccc(C)c(C)c1` (centres undefined) the activity, negative = inhibition was inactive: 2.67%. `Cc1cc(C)cc(OP(C)(=O)Nc2cccc(C(F)(F)F)c2)c1` (centres undefined) was tested, and the activity, negative = inhibition was inactive: 1.59%. In the case of `CCc1ccc(OP(C)(=O)O)cc1`, the activity, negative = inhibition is reported as inactive: -13.1%. For `COc1ccccc1OP(C)(=O)Nc1ccc(C)cc1C` (centres undefined), the activity, negative = inhibition was inactive: 1.61%. `CP(=O)(Nc1ccccn1)Oc1ccccc1` (centres undefined) was tested, and the activity, negative = inhibition was inactive: 0.909%. With `Cc1c(NP(C)(=O)Oc2ccc(C(C)C)cc2)c(=O)n(-c2ccccc2)n1C` (centres undefined) the activity, negative = inhibition was inactive: 2.77%. In the case of `O=[N+]([O-])c1cc([N+](=O)[O-])c(Nc2ccccn2)c([N+](=O)[O-])c1`, the activity, negative = inhibition is reported as inactive: -11.1%. In the case of `CN(C)CCOC(=O)C(O)(c1ccccc1)C1CCCC1` (centres undefined), the activity, negative = inhibition is reported as inactive: 4.11%. `COc1ccc(OP(C)(=O)Nc2ccccn2)cc1` (centres undefined) was tested, and the activity, negative = inhibition was inactive: 0.805%. For `COc1ccccc1OP(C)(=O)Nc1ccc(Br)cc1` (centres undefined), the activity, negative = inhibition was inactive: -4.75%. With `CCN(CC)CCCOC(=O)C(O)(c1ccccc1)c1ccccc1` the activity, negative = inhibition was inactive: 13%. With `COc1ccc(OP(C)(=O)Nc2cccc(F)c2)cc1` (centres undefined) the activity, negative = inhibition was inactive: -2.57%. In the case of `COc1ccccc1OP(C)(=O)Nc1cc(Cl)ccc1C` (centres undefined), the activity, negative = inhibition is reported as inactive: -3.45%. In the case of `Cc1cc(C)cc(OP(C)(N)=O)c1` (centres undefined), the activity, negative = inhibition is reported as inactive: -17.2%. For `CCOC(=O)c1ccc(NP(C)(=O)Oc2ccccc2)cc1` (centres undefined), the activity, negative = inhibition was inactive: -0.764%. `Cc1ccc(NP(C)(=O)Oc2ccccc2)c(C)c1` (centres undefined) was tested, and the activity, negative = inhibition was inactive: 0.541%. In the case of `COc1ccccc1OP(C)(=O)Nc1ccc(C)cc1` (centres undefined), the activity, negative = inhibition is reported as inactive: 1.1%. With `Cc1cccc(C)c1OP(C)(N)=O` (centres undefined) the activity, negative = inhibition was inactive: -6.67%. For `O=C(O)C(O)(c1ccccc1)c1ccccc1`, the activity, negative = inhibition was inactive: 25.9%. In the case of `CC(C)(C)c1ccc(OP(C)(=O)Nc2ccc(SC(F)(F)F)cc2)cc1` (centres undefined), the activity, negative = inhibition is reported as inactive: 0.86%. In the case of `O=[N+]([O-])c1ccc2c(c1)C=Nc1ccccc1O2`, the activity, negative = inhibition is reported as inactive: -10.6%. In the case of `O=C(O)C1(O)c2ccccc2-c2ccccc21`, the activity, negative = inhibition is reported as inactive: 16.6%. In the case of `COc1ccccc1OP(C)(=O)Nc1ccccc1` (centres undefined), the activity, negative = inhibition is reported as inactive: -11.6%. For `CP(=O)(Nc1ccccc1Br)Oc1ccccc1` (centres undefined), the activity, negative = inhibition was inactive: -15.8%. With `CP(=S)(Nn1cnnc1)Oc1ccccc1` (centres undefined) the activity, negative = inhibition was inactive: 1.65%. For `CP(=O)(Nc1ccccn1)Oc1ccc(Cl)cc1` (centres undefined), the activity, negative = inhibition was inactive: 5.01%. For `CCOP(C)(=S)SCC(=O)NC(C)C(=O)O` (centres undefined), the activity, negative = inhibition was inactive: 5.98%. With `CCOC(=O)c1ccc(NP(C)(=O)Oc2ccc(OC)cc2)cc1` (centres undefined) the activity, negative = inhibition was inactive: 3.59%. With `Cc1cc(C)cc(OP(C)(=O)Nc2ccc(SC(F)(F)F)cc2)c1` (centres undefined) the activity, negative = inhibition was inactive: 2.91%. For `CP(=O)(NC(=O)Nc1ccccc1)Oc1ccccc1` (centres undefined), the activity, negative = inhibition was inactive: -3.13%. With `CCc1ccc(OP(C)(=O)N2CCN(c3ccc([N+](=O)[O-])cc3)CC2)cc1` (centres undefined) the activity, negative = inhibition was inactive: -9.95%. With `CP(=O)(Oc1ccccc1)OC(c1ccccc1)C(F)(F)F` (centres undefined) the activity, negative = inhibition was inactive: -8.25%. In the case of `CP(=O)(Nc1ccc(SC(F)(F)F)cc1)Oc1ccc(Cl)cc1` (centres undefined), the activity, negative = inhibition is reported as inactive: 3.4%. In the case of `Cc1cccc(C)c1OP(C)(=O)Nc1ccc(SC(F)(F)F)cc1` (centres undefined), the activity, negative = inhibition is reported as inactive: 2.03%. `Cc1nc2ccc3ccccc3c2s1.O=[N+]([O-])c1cc([N+](=O)[O-])c(O)c([N+](=O)[O-])c1` was tested, and the activity, negative = inhibition was inactive: 4.23%. With `CC(C)N(CCCl)C(C)C` the activity, negative = inhibition was inactive: 2.85%. For `O=[N+]([O-])c1cc([N+](=O)[O-])c(-n2nnc3ccccc32)c([N+](=O)[O-])c1`, the activity, negative = inhibition was inactive: 5.32%. In the case of `CCCOc1ccc(NP(C)(=O)Oc2ccc(Cl)cc2)cc1` (centres undefined), the activity, negative = inhibition is reported as inactive: 4.59%. `CP(=O)(Nc1ccc(SC(F)(F)F)cc1)Oc1ccccc1` (centres undefined) was tested, and the activity, negative = inhibition was inactive: -0.607%. In the case of `CN1CCCCC1COC(=O)C1(O)c2ccccc2CCc2ccccc21` (centres undefined), the activity, negative = inhibition is reported as inactive: -19.9%. For `COc1ccccc1OP(C)(=O)Nc1c(C)cccc1C` (centres undefined), the activity, negative = inhibition was inactive: 3.68%. For `O=[N+]([O-])c1cc([N+](=O)[O-])c(Nc2nnnn2CCO)c([N+](=O)[O-])c1`, the activity, negative = inhibition was inactive: -0.509%. `Cc1ccc([N+](=O)[O-])cc1[N+](=O)[O-]` was tested, and the activity, negative = inhibition was inactive: 7.05% [at 21.7 µM]. `O=[N+]([O-])c1cccc([N+](=O)[O-])c1` was tested, and the activity, negative = inhibition was inactive: 1.33% [at 21.7 µM]. With `Cc1cc(C)cc(OP(C)(=O)Nc2ccccn2)c1` (centres undefined) the activity, negative = inhibition was inactive: 4.28%. In the case of `CP(=O)(Nc1cccc(Br)c1)Oc1ccccc1` (centres undefined), the activity, negative = inhibition is reported as inactive: 1.32%. In the case of `Cc1ccc(C)c(NP(C)(=O)Oc2ccccc2)c1` (centres undefined), the activity, negative = inhibition is reported as inactive: 3.6%. For `Cc1cc(C)cc(OP(C)(=O)Nc2ccc(C)cc2C)c1` (centres undefined), the activity, negative = inhibition was inactive: -7.28%. `CCOC(=O)c1ccc(NP(C)(=O)Oc2cc(C)cc(C)c2)cc1` (centres undefined) was tested, and the activity, negative = inhibition was inactive: 5.83%. `COc1ccccc1OP(C)(=O)Nc1cccc(Br)c1` (centres undefined) was tested, and the activity, negative = inhibition was inactive: 9.25%.
